Test results: patent publication US7629348B2, “Heterocyclic amide and imine derivatives, processes for their preparation, compositions comprising them and their use as pesticides” (Merial Limited, priority 2001, dated 2009)

What was measured:
[1] = test system: black bean aphids (Aphis fabae); assay: Dip test: field bean plants (Vicia faba) and aphids dipped into solution of preparation, aphid mortality; details: plants and aphids dipped 5 seconds; after 3 and 6 days of storage; concentration 500 ppm or less
[2] = test system: black bean aphids (Aphis fabae); assay: Root-systemic test: solution pipetted into bottle with field bean (Vicia faba), aphid mortality; details: 4 ml aqueous solution pipetted into bottle; after 3 and 6 days of storage; concentration 500 ppm or less

With “N-butyl-N-isopropylthio-(4-trifluoromethyl)nicotinamide [Example C]” the “mortality of the preparation on the aphids” value [1] was “active” and the “root-systemic effect of the preparation as aphid mortality” value [2] was “active”.
